What was measured:
MDA-MB-231 = test: Cytotoxicity against human MDA-MB-231 cells assessed as reduction in cell viability after 24 hrs by MTT assay
MIA PaCa-2 = test: Cytotoxicity against human MIAPaCa2 cells assessed as reduction in cell viability after 48 by MTT assay
PANC-1 = test: Cytotoxicity against human PANC1 cells assessed as reduction in cell viability after 48 by MTT assay
Hs 766 = test: Cytotoxicity against human Hs766T cells assessed as reduction in cell viability after 48 by MTT assay

Structure (SMILES)	IC50 (MDA-MB-231) [µM]	IC50 (MIA PaCa-2) [µM]	IC50 (PANC-1) [µM]	IC50 (Hs 766) [µM]
O=C(CCCc1ccc(C(CCCl)CCCl)cc1)NCCNC(=O)c1ccc(-c2ccc(C3=NCCCN3)cc2)o1	5	–	–	–
C[C@]12CC[C@H](OC(=O)Cc3ccc(N(CCCl)CCCl)cc3)C[C@@H]1CC[C@@H]1[C@@H]2CC[C@]2(C)NC(=O)CC[C@@H]12	–	> 100	> 100	> 100

From ChEMBL document CHEMBL4152205, “Therapeutic journery of nitrogen mustard as alkylating anticancer agents: Historic to future perspectives” (2018)
